Data from patent publication US10702486B2, “Treatment of CNS disorders with trans 4-(3,4-dichlorophenyl)-1,2,3,4-tetrahydro-1-naphthalenamine” (SUNOVION PHARMACEUTICALS INC., priority 2002, dated 2020).

Chains of the proteins cited; added tags and fusions are not shown.
UniProt P31652, whole entry: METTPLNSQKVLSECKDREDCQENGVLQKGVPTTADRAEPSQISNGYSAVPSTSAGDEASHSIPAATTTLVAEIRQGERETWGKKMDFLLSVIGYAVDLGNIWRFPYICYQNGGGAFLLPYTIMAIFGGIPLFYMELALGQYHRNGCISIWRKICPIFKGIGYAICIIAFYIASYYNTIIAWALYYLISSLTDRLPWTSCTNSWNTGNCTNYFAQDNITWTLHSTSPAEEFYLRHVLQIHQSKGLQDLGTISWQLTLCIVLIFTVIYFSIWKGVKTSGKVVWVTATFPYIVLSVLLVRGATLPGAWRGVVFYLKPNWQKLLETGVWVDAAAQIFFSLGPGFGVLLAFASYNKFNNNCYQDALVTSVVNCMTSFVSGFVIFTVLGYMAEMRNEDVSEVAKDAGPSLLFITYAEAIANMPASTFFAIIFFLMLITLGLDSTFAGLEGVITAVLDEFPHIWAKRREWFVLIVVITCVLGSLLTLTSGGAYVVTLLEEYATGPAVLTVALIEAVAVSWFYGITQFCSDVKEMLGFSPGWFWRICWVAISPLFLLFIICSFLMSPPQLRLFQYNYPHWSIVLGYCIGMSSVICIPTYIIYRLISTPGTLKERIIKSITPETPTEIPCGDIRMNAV

Molecular target: T1, functional uptake of serotonin (5-HT) (Rattus norvegicus, UniProt P31652)
T1 construct: synaptosomes isolated in a 0.32M sucrose buffer from a male Wistar rat cortex; from tissue
Assay: Serotonin functional uptake assay in rat synaptosomes
Type: biochemical
Conditions: [3H]5-hydroxytryptamine, 15 min at 37° C.

IC50: 41 nM
Compound: N[C@@H]1CC[C@@H](c2ccc(Cl)c(Cl)c2)c2ccccc21 (racemic) [P + Q, trans-4-(3,4-dichlorophenyl)-1,2,3,4-tetrahydro-1-naphthalenamine]
